Data published in patent US9371331B2, “Modulators of methyl modifying enzymes, compositions and uses thereof” (Constellation Pharmaceuticals, Inc., priority 2012, dated 2016).

Protein sequences, listed by entry. Tags and fused reporters are not part of them. Lines headed by an entry give the natural chain unless they say otherwise; changes in a name come on top.
UniProt Q15910, whole entry Y641N: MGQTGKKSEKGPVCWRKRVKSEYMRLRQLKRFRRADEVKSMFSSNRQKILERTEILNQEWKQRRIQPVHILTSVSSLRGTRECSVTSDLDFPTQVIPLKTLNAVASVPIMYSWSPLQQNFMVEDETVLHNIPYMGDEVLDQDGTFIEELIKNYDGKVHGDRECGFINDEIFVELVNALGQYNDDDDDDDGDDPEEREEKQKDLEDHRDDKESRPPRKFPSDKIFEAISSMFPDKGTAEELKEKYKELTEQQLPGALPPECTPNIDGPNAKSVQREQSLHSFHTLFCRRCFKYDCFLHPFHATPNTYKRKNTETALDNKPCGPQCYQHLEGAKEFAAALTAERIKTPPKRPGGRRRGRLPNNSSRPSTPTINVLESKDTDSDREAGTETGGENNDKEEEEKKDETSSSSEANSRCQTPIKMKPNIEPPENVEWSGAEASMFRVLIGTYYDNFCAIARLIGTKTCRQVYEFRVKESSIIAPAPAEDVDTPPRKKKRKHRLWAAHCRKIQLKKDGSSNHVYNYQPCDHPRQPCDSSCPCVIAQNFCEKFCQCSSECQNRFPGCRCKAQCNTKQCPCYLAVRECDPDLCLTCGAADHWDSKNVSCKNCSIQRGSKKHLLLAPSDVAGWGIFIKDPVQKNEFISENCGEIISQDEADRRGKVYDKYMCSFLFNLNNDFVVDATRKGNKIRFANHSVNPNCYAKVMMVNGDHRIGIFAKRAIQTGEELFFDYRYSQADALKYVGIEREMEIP
UniProt Q15910, whole entry: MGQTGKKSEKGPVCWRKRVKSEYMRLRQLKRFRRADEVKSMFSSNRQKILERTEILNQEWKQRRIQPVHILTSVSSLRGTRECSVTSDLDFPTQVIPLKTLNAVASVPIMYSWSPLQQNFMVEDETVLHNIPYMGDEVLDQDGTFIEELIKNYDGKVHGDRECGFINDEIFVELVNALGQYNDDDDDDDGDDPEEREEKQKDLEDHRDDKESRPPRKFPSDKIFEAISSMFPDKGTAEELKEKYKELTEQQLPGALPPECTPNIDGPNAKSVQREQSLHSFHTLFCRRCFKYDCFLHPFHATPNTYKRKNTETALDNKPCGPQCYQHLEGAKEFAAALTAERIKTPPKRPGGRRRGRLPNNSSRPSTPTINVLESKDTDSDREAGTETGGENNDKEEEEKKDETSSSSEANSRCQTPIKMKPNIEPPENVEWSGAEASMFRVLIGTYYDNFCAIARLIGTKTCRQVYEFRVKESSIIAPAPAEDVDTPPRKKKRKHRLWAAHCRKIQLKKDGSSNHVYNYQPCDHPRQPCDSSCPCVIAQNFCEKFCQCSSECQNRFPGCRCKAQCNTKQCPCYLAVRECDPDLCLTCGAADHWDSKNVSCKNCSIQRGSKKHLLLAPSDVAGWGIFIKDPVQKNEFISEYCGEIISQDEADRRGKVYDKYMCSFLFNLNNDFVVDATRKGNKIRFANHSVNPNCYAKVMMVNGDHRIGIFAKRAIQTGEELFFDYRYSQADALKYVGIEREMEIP
UniProt Q15022, whole entry partner: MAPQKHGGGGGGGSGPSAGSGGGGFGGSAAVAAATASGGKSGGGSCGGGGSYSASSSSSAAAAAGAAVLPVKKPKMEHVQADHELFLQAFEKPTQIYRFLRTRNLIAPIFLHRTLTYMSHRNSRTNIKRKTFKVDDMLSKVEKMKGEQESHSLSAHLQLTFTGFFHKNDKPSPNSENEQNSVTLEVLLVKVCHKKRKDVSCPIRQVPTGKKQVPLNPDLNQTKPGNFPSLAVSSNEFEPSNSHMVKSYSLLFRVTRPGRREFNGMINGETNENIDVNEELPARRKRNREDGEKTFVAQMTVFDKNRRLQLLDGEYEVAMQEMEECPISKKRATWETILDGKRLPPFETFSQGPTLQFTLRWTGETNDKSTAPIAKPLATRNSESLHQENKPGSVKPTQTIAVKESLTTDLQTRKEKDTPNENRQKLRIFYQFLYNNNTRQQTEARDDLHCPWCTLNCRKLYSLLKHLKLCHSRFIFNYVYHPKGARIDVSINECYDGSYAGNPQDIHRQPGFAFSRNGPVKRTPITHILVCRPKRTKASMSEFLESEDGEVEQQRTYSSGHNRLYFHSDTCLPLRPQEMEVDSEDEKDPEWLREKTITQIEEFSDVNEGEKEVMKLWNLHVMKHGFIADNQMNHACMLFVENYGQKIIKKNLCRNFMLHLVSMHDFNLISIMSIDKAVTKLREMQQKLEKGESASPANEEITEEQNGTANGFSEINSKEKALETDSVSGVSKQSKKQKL
UniProt O75530, whole entry partner: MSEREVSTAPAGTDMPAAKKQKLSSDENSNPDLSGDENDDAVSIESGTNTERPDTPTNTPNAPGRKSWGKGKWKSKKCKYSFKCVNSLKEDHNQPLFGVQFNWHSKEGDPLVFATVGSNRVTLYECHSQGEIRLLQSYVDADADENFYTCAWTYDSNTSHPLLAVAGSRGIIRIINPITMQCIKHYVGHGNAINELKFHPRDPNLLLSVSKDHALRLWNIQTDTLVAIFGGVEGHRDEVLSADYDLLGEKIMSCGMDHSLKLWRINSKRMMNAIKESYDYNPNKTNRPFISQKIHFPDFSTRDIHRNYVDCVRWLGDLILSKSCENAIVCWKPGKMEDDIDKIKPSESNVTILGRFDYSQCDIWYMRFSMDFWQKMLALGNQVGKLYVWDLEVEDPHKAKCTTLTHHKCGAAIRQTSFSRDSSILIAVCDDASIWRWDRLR

What was measured:
Y641N EZH2 = Y641N EZH2 (Homo sapiens, UniProt Q15910, Y641N); assay: Y641N EZH2 assay: as EZH2 assay, with reconstituted H3K27Me2 oligonucleosomes as substrate; format: biochemical; details: Y641N mutant EZH2, H3K27Me2 oligonucleosome substrate; for pIC50: read-out: Y641N EZH2 IC50
[1] = tested on: H3K27me3 mark in HeLa cells; assay: H3K27me3 MSD Hela Assay; details: read-out: H3K27me3_MSD_HeLa_ (EC50), 96 hours
EZH2 (rPRC2) = EZH2 (rPRC2) (Homo sapiens, UniProt Q15910); assay: EZH2 assay: rPRC2, biotinylated oligonucleosomes, 3H SAM methyl transfer (FlashPlate scintillation); format: biochemical; details: wild-type EZH2 (rPRC2), biotinylated oligonucleosome substrate; for pIC50: read-out: EZH2 IC50

Structure (SMILES) | pIC50 (Y641N EZH2) | pEC50 [1] | pIC50 (EZH2 (rPRC2)) | Y641N EZH2 IC50 (Y641N EZH2) | EZH2 IC50 (EZH2 (rPRC2))
Cc1cc(C)c(CNC(=O)c2c(C)n(-c3ccccc3C)c3ccccc23)c(=O)[nH]1 | 6.00 to 7.00 | 5.00 to 5.70 | > 7.00 |  | 
Cc1cc(C)c(CNC(=O)c2c(C)n(C3CCOc4ccccc43)c3ncccc23)c(=O)[nH]1 (centres unmarked) | 6.00 to 7.00 |  | 6.00 to 7.00 |  | 
COc1cc(C)[nH]c(=O)c1CNC(=O)c1c(C)n(C(C)c2ccccc2)c2ccccc12 (single isomer, unassigned) [Compound 114, (R or S)N-((4-methoxy-6-methyl-2-oxo-1,2-dihydropyridin-3-yl)methyl)-2-methyl-1-(1-phenylethyl)-1H-indole-3-carboxamide] | 5.00 to 6.00 |  | 6.00 to 7.00 |  | 
COCC(C)n1c(C)c(C(=O)NCc2c(OC)cc(C)[nH]c2=O)c2ccncc21 (centres unmarked) | < 5.00 |  | 5.00 to 6.00 |  | 
Cc1cc(C)c(CNC(=O)c2cnn(-c3ccccn3)c2C)c(=O)[nH]1 | < 5.00 |  | < 5.00 |  | 
Cc1cc(C)c(CNC(=O)c2cn(Cc3ccccc3)nc2-c2ccccc2)c(=O)[nH]1 | < 5.00 |  | < 5.00 |  | 
COc1cccc(-c2nn(Cc3ccccc3)cc2C(=O)NCc2c(C)cc(C)[nH]c2=O)c1 | < 5.00 |  | < 5.00 |  | 
COc1cc(C)[nH]c(=O)c1CNC(=O)c1c(C)n(C(C)C2CCN(C(C)=O)CC2)c2ccccc12 (centres unmarked) | > 7.00 | 5.70 to 6.40 | > 7.00 |  | 
Cc1cc(C)c(CNC(=O)c2c(C)n(C(C)c3ccccc3)c3ncncc23)c(=O)[nH]1 (centres unmarked) | 6.00 to 7.00 |  | > 7.00 |  | 
COc1cc(C)[nH]c(=O)c1CNC(=O)c1c(C)n(C(C)c2ccccc2)c2ncccc12 (centres unmarked) | 6.00 to 7.00 | 5.00 to 5.70 | > 7.00 |  | 
COc1cc(C)[nH]c(=O)c1CNC(=O)c1c(C)n(C(C)C2CCNCC2)c2ccccc12 (single isomer, unassigned) [Compound 326, (R or S)—N-((4-methoxy-6-methyl-2-oxo-1,2-dihydropyridin-3-yl)methyl)-2-methyl-1-(1-(piperidin-4-yl)ethyl)-1H-indole-3-carboxamide hydrochloride] | > 7.00 | 5.70 to 6.40 | > 7.00 |  | 
COc1cc(C)[nH]c(=O)c1CNC(=O)c1c(C)n(C(C)C2CCOCC2)c2ncccc12 (single isomer, unassigned) | 6.00 to 7.00 |  |  |  | 
Cc1cc(C)c(CNC(=O)C2C(=O)N(C(C)c3ccccc3)c3ccccc32)c(=O)[nH]1 (centres unmarked) |  |  |  | *(10 μM) | *(0.5 μM)
Cc1cc(C)c(CNC(=O)c2nn(-c3ccccc3)c3c2CCC3)c(=O)[nH]1 | < 5.00 |  | < 5.00 |  | 
Cc1cc(C)c(CNC(=O)c2c(C)n(Cc3ccccc3)c3c(=O)n(C)ccc23)c(=O)[nH]1 |  |  |  | *(0.5 μM) | *(10 μM)
Cc1cccc(C(C)n2c(C)c(C(=O)NCc3c(C)cc(C)[nH]c3=O)c3ccccc32)c1 (centres unmarked) | > 7.00 |  | > 7.00 |  | 

pEC50, pIC50: −log10 of the molar value. Structures can show the parent of a compound that is named as a salt.
